One molecule from patent US20030181404A1 (BETH ISRAEL DEACONESS MEDICAL CENTER, published 2003) can be followed below.

The test has as its target T1, HRG-activated ErbB-2 receptor (tyrosine-phosphorylated 185 kD protein) (human (human breast cancer cell lines), UniProt P04626, tyrosine-phosphorylated upon HRG stimulation (sites not given)).
T1 construct: Endogenous full-size protein from detergent lysates of cells stimulated with 10 nM heregulin; also called p185 ErbB-2; neu/HER-2
The test is described as follows: GST pull-down from HRG-stimulated T47D lysates, immunoblot.

B1: GST protein alone (other, UniProt P08515 1-218, looked up)
chain: MSPILGYWKIKGLVQPTRLLLEYLEEKYEEHLYERDEGDKWRNKKFELGLEFPNLPYYIDGDVKLTQSMAIIRYIADKHNMLGGCPKERAEISMLEGAVLDIRYGVSRIAYSKDFETLKVDFLSKLPEMLKMFEDRLCHKTYLNGDHVTHPDFMLYDALDVVLYMDPMCLDAFPKLVCFKKRIEAIPQIDKYLKSSKYIAWPLQGWQATFGGGDHPPK
notes: Control
Regarding B1, the binding result is given as “no binding”.
